# AlphaSeq binding of Ab-14 heavy chain variants to a spike HR2 peptide

All variants were tested on one target, the spike HR2 peptide PDVDLGDISGINAS (SARS-CoV-2).

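Variants in AAYL49 differ from the parent at up to three CDR positions; double and triple changes were sampled at random. The scFvs were displayed on barcoded MATa yeast, the peptide on MATalpha yeast. Pairs that bind mate more often; barcode pairs of the diploids are counted by sequencing. Each replicate has its own calibration line, from reference interactions of the BCL2 family. Mating was done three times.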

Each scFv is VH, a 15-residue (Gly4Ser)3 linker, VL, as in the parent Ab-14, and differs from it in the CDRs of the heavy chain only.
VH: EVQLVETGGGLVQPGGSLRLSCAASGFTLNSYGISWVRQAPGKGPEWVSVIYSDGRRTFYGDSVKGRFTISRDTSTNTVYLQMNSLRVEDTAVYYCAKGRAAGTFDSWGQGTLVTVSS
VL: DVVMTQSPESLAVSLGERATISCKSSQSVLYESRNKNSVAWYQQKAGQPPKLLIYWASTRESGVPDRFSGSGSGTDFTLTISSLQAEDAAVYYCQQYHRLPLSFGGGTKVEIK

Positions count from residue 1 of the parent VH; S53P puts P in place of S.
Values are apparent Kd, the geometric mean of the replicates that gave a signal; lower means stronger binding.
An entry "nd" has no value in the source: the pair was not observed among the diploids in any replicate. This suggests poor binding but is not conclusive.
Nonspecific signal, from three strains lacking the peptide, appeared in 15% of pairings of library AAYL49, centred on 11 µM (5% of these signals below 680 nM); values are not corrected for it. For each scFv, signals with the empty controls are counted beside the result.
For reference, the parent read 4.4 nM as the reference entry and 13 µM (one replicate of three) as a member of this library.

S53P/R57T/Y60N: nd (0 of 3 replicates; controls 2 of 9).
F59V/S63T: 20 nM (3 of 3 replicates; controls 1 of 9).
A101H/A102K: 34 nM (3 of 3 replicates; controls 2 of 9).
L29D/S35T/Y60A: nd (0 of 3 replicates; controls 0 of 9).
F27G/T28W/V64A: 23 nM (2 of 3 replicates; controls 1 of 9).
S53N/V64W/T104D: 5.8 µM (1 of 3 replicates; controls 0 of 9).
Y32S/D54K/T104H: nd (0 of 3 replicates; controls 4 of 9).
L29Q/S31N/Y52R: 26 µM (2 of 3 replicates; controls 0 of 9).
S53D/G55V: nd (0 of 3 replicates; controls 1 of 9).
V64K/F105L/D106F: 3.8 µM (1 of 3 replicates; controls 2 of 9).
S35F/G61V/G99R: nd (0 of 3 replicates; controls 0 of 9).
Y32M/G61N/S63K: nd (0 of 3 replicates; controls 1 of 9).
V50Q/G99L/T104Q: nd (0 of 3 replicates; controls 0 of 9).
G55R/G61S/V64I: nd (0 of 3 replicates; controls 0 of 9).
D54H/G55H/R100N: nd (0 of 3 replicates; controls 1 of 9).

Continued, with the values leading:

88 nM (3 of 3 replicates; controls 0 of 9): T28W/T58K.
2.9 µM (1 of 3 replicates; controls 3 of 9): G33P/S35C/T58S.
nd (0 of 3 replicates; controls 1 of 9): S31M/A101S/A102H.
720 µM (1 of 3 replicates; controls 2 of 9): I34W/T58E/F59P.
nd (0 of 3 replicates; controls 0 of 9): G26D/G55I/G103N.
nd (0 of 3 replicates; controls 1 of 9): G26D/Y52C/G61L.
nd (0 of 3 replicates; controls 0 of 9): Y32E/V50K/D54R.
nd (0 of 3 replicates; controls 2 of 9): Y52P/S53C/A101S.
460 nM (2 of 3 replicates; controls 2 of 9): T28V/R57K/R100L.
nd (0 of 3 replicates; controls 3 of 9): Y32R/G61W/D62A.
nd (0 of 3 replicates; controls 1 of 9): F27C/R56S/G61N.
27 µM (1 of 3 replicates; controls 1 of 9): T28P/I51V/Y52A.
1.9 µM (1 of 3 replicates; controls 1 of 9): G26D/G33N.
nd (0 of 3 replicates; controls 2 of 9): S31R/I34N/A102H.
nd (0 of 3 replicates; controls 1 of 9): T28Y/S53W/G55N.
2.4 µM (3 of 3 replicates; controls 4 of 9): S53T/K65V.

Repeated from above, the 4 best binders with a signal in all replicates:

| changes | apparent Kd | seen in | control signals |
|---|---|---|---|
| F59V/S63T | 20 nM | 3/3 | 1/9 |
| A101H/A102K | 34 nM | 3/3 | 2/9 |
| T28W/T58K | 88 nM | 3/3 | 0/9 |
| S53T/K65V | 2.4 µM | 3/3 | 4/9 |

From the AlphaSeq antibody data of Engelhart et al. 2022 (doi:10.1038/s41597-022-01779-4), copy in the FLAb collection.